Test results published in ChEMBL document CHEMBL1142716, “2-Hydroxy-4,6-diamino-[1,3,5]triazines: a novel class of VEGF-R2 (KDR) tyrosine kinase inhibitors” (J Med Chem, 2005).

Chains of the proteins cited; added tags and fusions are not shown.
UniProt P35968, whole entry: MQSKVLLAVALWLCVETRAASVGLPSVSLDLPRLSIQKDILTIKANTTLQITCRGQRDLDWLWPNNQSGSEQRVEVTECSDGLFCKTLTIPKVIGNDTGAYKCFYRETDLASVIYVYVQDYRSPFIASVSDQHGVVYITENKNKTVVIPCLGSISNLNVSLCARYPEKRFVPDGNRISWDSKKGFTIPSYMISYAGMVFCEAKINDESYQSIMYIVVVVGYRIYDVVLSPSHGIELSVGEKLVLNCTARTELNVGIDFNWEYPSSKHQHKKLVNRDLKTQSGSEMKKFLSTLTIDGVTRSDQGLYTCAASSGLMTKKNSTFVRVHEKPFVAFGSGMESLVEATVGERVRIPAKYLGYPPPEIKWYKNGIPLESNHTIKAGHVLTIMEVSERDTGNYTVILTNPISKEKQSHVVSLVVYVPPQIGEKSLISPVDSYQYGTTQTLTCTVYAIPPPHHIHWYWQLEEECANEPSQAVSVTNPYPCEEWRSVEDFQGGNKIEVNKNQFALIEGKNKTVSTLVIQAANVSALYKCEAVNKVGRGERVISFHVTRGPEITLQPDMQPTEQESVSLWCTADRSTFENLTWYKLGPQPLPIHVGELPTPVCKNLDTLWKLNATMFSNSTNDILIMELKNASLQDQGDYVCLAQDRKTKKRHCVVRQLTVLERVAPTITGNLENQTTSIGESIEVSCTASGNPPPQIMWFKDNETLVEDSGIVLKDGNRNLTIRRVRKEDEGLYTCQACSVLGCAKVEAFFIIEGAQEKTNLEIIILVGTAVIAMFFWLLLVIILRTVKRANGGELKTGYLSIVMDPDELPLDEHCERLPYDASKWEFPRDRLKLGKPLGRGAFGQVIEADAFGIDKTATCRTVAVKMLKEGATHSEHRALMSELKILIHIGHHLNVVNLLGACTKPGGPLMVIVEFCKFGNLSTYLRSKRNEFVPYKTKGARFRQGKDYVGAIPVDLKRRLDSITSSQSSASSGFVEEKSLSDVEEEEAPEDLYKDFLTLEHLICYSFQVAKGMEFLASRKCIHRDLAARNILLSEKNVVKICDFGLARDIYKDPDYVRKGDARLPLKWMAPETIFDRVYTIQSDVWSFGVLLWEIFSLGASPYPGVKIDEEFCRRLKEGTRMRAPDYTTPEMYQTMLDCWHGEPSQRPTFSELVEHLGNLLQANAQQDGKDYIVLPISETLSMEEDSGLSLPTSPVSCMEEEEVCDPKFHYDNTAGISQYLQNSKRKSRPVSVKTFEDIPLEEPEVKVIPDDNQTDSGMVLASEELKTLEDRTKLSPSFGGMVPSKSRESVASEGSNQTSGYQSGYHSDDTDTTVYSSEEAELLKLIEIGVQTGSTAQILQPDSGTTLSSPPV

Molecular target: Vascular endothelial growth factor receptor 2 (Homo sapiens, UniProt P35968)
Assay: In vitro inhibition of Vascular endothelial growth factor receptor 2 at 10 uM ATP

- IC50: 1.6 µM
SMILES: CN(c1ccc2ncsc2c1)c1nc(NC(C)(C)c2ccccc2)nc(=O)[nH]1
